## Ab-14 light chain CDR variants: yeast mating affinities

Values reported by Li et al. 2023, doi:10.1038/s41467-023-39022-2 (FLAb copy).

Antigen: PDVDLGDISGINAS, a 14-residue peptide of the SARS-CoV-2 spike HR2 region.

Each scFv is VH, a 15-residue (Gly4Ser)3 linker, VL, as in the parent Ab-14, and differs from it in the CDRs of the light chain only.
VH: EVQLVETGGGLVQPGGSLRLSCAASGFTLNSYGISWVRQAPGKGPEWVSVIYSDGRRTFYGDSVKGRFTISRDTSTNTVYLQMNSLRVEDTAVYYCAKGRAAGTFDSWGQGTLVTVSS
VL: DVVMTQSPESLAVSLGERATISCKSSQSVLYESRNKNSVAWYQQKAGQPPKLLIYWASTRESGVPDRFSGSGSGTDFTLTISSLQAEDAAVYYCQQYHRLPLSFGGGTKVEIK

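Phage display of a naive human antibody library on the peptide gave the parent. The variants were designed computationally from a first round of random CDR variants and then made and measured. Group labels follow the data file (Ctrl: baseline library sampled from a position-specific scoring matrix, with some repeated check sequences; Rand: our label for a block that the file lists under HC and that is probably the random mutants of the ten best first-round binders; GP: Gaussian process model; HC: hill climbing; Gen: genetic algorithm; a sequence that several methods proposed may carry one label only). AlphaSeq pools MATa yeast showing the antibodies with MATalpha yeast showing the peptide. Mating (16 h, 30 °C) was followed by selection of diploids and sequencing of their barcodes. Scores were corrected for input abundance and mapped to Kd with protein pairs of known affinity run in the same pool. There are six technical replicates.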

Sequences are complete VL domains. This list holds designs with at most six substitutions. Affinities are written as log10 Kd with Kd in nM; a lower number is a better binder. A mean of the replicates is given; it leaves out those without a signal. A pair that was not seen in that replicate is written "nd"; this usually means weak binding, but a binder can also be missed. Three control strains display no target. For all light chain designs, 4% of the pairings with them gave a signal, with a median of 2.64 and one signal in twenty below 1.59, so weak values seen in few replicates may be background.

Variant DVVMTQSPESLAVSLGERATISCKLSQSQLYESRNKNSVAWYQQKAGQPPKLLIYHASTRCSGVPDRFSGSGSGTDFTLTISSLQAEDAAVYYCQQYHRLPLSFGGGTKVEIK [GP_Gen] gave 0.30, 0.26, 0.23, 0.14, 0.21, 0.51 (mean 0.27).
Variant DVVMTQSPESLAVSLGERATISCKSEQSVPYESRNKNSVAWYQQKAGQPPKLLIYNASQRESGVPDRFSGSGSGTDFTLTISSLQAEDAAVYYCQQYHRLPLSFGGGTKVEIK [GP_Gen] gave 0.50, 0.15, 0.16, 0.19, 0.49, 0.28 (mean 0.30).
Variant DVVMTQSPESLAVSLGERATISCKLSQSVLYEERNKNSVAWYQQKAGQPPKLLIYNASTRCSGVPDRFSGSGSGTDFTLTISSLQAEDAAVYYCQQYHRLPLSFGGGTKVEIK [GP_Gen] gave -0.31, -0.27, -0.62, -0.57, -0.46, -0.28 (mean -0.42).
Variant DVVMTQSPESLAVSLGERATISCKQSQSDLYESRNKNSVAWYQQKAGQPPKLLIYMASTRESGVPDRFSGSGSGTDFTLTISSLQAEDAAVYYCQQYHRLPLSFGGGTKVEIK [GP_HC] gave 0.88, 0.24, 0.39, 0.37, 0.52, 0.59 (mean 0.50).
Variant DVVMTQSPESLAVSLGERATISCKSSQSVLYESRNKNSVAWYQQKAGQPPKLLIYNASTRESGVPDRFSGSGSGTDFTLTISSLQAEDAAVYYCQQGHRLPWSFGGGTKVEIK [Ctrl] gave nd, nd, nd, nd, nd, nd.
Variant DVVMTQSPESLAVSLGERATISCKLSQSVLYESRNKNSVAWYQQKAGQPPKLLIYQASQRESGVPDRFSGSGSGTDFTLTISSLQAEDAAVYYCQQYHRLPLSFGGGTKVEIK [GP_Gen] gave 0.01, -0.01, -0.16, -0.09, -0.01, -0.08 (mean -0.06).
Variant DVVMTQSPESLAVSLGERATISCKSSQSVLYESRNKNSVAWYQQKAGQPPKLLIYWASYRESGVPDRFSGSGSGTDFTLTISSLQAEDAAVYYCQQYHRLPLSFGGGTKVEIK [Ctrl] gave nd, nd, nd, nd, nd, nd.
Variant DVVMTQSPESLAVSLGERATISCKSSQSVLYESSLKNMVAWYQQKAGQPPKLLIYWASTRESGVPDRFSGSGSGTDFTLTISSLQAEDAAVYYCYQYHRLPLSFGGGTKVEIK [Ctrl] gave nd, nd, nd, nd, nd, nd.
Variant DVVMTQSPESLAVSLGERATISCKSSISGLYESRAKNSVAWYQQKAGQPPKLLIYEASTRESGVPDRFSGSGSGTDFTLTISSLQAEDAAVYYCQQYHRLPLSFGGGTKVEIK [GP_HC] gave 0.86, nd, 0.83, 1.59, 0.98, 2.06 (mean 1.26).
Variant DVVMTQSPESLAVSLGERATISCKLYQSDLYESRNKNSVAWYQQKAGQPPKLLIYGASTRESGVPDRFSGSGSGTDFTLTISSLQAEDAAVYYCQQYHRLPLSFGGGTKVEIK [GP_Gen] gave 0.00, -0.31, -0.37, -0.34, -0.35, -0.04 (mean -0.24).
Variant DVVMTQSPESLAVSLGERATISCKLSQSTLYDSRNKNSVAWYQQKAGQPPKLLIYNASTRESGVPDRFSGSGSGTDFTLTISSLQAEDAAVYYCQQYHRLPLSFGGGTKVEIK [GP_HC] gave -0.09, -0.01, -0.21, -0.19, -0.11, 0.24 (mean -0.06).
Variant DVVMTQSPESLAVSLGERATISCKQSQSVLGESRNKNSVAWYQQKAGQPPKLLIYDASTRESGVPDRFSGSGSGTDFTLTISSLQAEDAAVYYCQQYHRLPLSFGGGTKVEIK [GP_HC] gave nd, nd, nd, nd, nd, nd.
Variant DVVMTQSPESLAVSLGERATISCKSQQSVLYESRNKNSVAWYQQKAGQPPKLLIYYASTRESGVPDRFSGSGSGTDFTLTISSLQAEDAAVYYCQQYHRLPLSFGGGTKVEIK [Ctrl] gave 0.71, 1.40, 1.59, 0.52, 0.72, 0.87 (mean 0.97).
Variant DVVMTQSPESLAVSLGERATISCKFSQEVLFESRNKNSVAWYQQKAGQPPKLLIYDASTRESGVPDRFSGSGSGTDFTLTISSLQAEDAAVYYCQQYHRLPLSFGGGTKVEIK [GP_HC] gave -0.41, -0.77, -0.59, -0.82, -0.61, -0.72 (mean -0.65).
Variant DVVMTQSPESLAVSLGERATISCKSSQPVLYESRNKNSVAWYQQKAGQPPKLLIYKASTREDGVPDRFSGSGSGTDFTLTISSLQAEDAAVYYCQQYHRLPLTFGGGTKVEIK [Ctrl] gave nd, nd, nd, nd, 1.84, nd.
Variant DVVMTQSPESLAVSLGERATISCKVSQSVLYESRMKNSVAWYQQKAGQPPKLLIYDASTRCSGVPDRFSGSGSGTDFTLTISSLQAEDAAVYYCQQYHRLPLWFGGGTKVEIK [GP_HC] gave -0.11, -0.23, -0.20, -0.58, -0.48, -0.17 (mean -0.30).
Variant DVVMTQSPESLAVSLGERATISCKLVNSTLYESRQKNSVAWYQQKAGQPPKLLIYSASTRESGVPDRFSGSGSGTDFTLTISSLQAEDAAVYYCQQYHRLPLSFGGGTKVEIK [GP_HC] gave 0.71, 0.46, 0.96, 1.05, 0.76, 1.04 (mean 0.83).
Variant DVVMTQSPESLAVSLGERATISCHSSPSVAYEDRNKNSVAWYQQKAGQPPKLLIYNASTRESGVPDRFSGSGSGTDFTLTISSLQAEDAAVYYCQQYHRLPLSFGGGTKVEIK [GP_HC] gave 0.24, 0.02, 0.06, -0.10, 0.10, 0.08 (mean 0.07).
Variant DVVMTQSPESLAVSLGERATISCQSSQSVLYESRNKNSVAWYQQKAGQPPKLLIYWASTRESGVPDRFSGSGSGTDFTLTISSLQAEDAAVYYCQQYSRLPLSFGGGTKVEIK [Ctrl] gave nd, nd, nd, nd, nd, nd.
Variant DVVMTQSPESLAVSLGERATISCKLSQSVLQESSNKNSVAWYQQKAGQPPKLLIYWASTRKSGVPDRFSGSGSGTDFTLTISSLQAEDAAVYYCQQYHRLPLSFGGGTKVEIK [Ctrl] gave 0.98, 1.23, 1.25, 0.36, 0.75, 0.82 (mean 0.90).
Variant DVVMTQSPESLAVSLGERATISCKSGQGVLYFSRNKNSVAWYQQKAGQPPKLLIYGASGRESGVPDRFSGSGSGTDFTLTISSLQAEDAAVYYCQQYHRLPLSFGGGTKVEIK [Rand] gave 1.42, 1.69, 1.22, 1.11, 1.35, 1.40 (mean 1.37).
Variant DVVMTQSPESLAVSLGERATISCKSSQSVLYCSRNKNSVAWYQQKAGQPPKLLIYWASTRESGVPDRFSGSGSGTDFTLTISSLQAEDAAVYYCQSYHRLPLDFGGGTKVEIK [Ctrl] gave nd, nd, 2.09, nd, nd, nd.

Excerpt, the final 2 entries:

With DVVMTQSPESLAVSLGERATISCKSGQGVLYFSRNKNSVAWYQQKAGQPPKLLIYGASGRESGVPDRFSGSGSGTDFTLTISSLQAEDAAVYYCQQYHRLPLSFGGGTKVEIK [Rand] the result was 1.42, 1.69, 1.22, 1.11, 1.35, 1.40 (mean 1.37).
With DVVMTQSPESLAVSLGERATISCKSSQSVLYCSRNKNSVAWYQQKAGQPPKLLIYWASTRESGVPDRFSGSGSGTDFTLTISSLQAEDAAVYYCQSYHRLPLDFGGGTKVEIK [Ctrl] the result was nd, nd, 2.09, nd, nd, nd.

Values of this round are not directly comparable with the first-round values of the same sequences. The authors averaged sequences with at least three values out of six and counted those with two or fewer as poor binders. Of ten entries with the parent sequence, four were seen in most replicates (averages 0.34 to 2.37), three in one and three in none, so single entries are noisy.